The source of these data is ChEMBL document CHEMBL1201862, “PubChem BioAssay data set” (2004).

Sequences of proteins named here, by UniProt entry; tags and fusion partners are left off.
UniProt P98170, whole entry: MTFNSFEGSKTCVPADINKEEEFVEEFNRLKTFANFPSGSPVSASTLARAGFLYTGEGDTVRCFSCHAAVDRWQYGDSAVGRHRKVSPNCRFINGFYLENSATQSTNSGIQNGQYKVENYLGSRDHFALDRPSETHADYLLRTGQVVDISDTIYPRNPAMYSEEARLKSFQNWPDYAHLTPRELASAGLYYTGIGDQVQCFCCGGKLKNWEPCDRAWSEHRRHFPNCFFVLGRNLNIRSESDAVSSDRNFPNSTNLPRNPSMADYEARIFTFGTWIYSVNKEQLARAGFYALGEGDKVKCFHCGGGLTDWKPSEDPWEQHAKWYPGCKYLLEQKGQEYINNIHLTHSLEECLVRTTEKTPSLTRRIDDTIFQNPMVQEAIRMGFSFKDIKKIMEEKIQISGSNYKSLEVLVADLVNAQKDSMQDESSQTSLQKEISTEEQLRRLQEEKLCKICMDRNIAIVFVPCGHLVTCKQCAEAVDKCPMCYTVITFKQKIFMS

Calls of active or inactive are those of the source. Unless noted, the rule behind the calls is not given here.

In one test the target is T1, Protein skinhead-1 (Caenorhabditis elegans, UniProt P34707).
T1 sequence (P34707 whole entry): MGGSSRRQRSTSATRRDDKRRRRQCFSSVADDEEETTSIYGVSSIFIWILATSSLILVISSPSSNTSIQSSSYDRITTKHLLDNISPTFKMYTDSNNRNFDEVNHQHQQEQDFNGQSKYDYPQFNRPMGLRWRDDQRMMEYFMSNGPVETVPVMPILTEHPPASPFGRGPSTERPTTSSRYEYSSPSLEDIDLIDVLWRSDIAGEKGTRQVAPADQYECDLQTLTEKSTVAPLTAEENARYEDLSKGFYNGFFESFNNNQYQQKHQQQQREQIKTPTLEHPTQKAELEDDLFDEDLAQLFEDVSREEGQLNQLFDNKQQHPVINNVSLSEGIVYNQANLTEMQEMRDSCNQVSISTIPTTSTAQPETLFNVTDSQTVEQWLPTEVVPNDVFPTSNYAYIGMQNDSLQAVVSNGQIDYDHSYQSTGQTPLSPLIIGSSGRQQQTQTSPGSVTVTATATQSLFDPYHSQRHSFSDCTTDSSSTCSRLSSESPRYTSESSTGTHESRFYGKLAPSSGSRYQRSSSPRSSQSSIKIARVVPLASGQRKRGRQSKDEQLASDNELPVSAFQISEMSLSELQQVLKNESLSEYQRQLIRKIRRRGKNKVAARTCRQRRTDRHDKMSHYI
In kind it is functional.

Test [1] addresses T2, E3 ubiquitin-protein ligase XIAP (Homo sapiens, UniProt P98170). The test is described as follows: SAR analysis of Antagonists of XIAP-Bir3 domain of IAP-family anti-apoptotic proteins. [Related pubchem assays (depositor defined):AID1018, AID1449, AID1513, AID1514, AID1638].
Test [2] has as its target T2, E3 ubiquitin-protein ligase XIAP. The test is described as follows: SAR analysis of Antagonists of IAP-family anti-apoptotic proteins. [Related pubchem assays (depositor defined):AID1018, AID1449, AID1513, AID1514, AID1638].
The target of another test is Prothrombin (Homo sapiens, UniProt P00734). The test is described as follows: Thrombin 1536 HTS Dose Response Confirmation. [Related pubchem assays: 1046 (Thrombin 1536 HTS; hits were confirmed in this assay)]. The test is classed as functional.

The term IC50 denotes the midpoint of a concentration-inhibition curve. Regarding `CCc1ccc(-c2nc(-c3ccncc3)no2)cc1`, on Protein skinhead-1, the IC50 was active: 10.4 µM.

For `CN[C@@H](C)C(=O)N[C@@H](C(=O)N1CCC[C@H]1C(=O)NC1CCCc2ccccc21)C(C)C` (some centres undefined), the IC50 in test [1] was active: 14.5 µM; in test [2], inactive: 154 µM.

`COC(=O)c1nnc(NC(=O)c2ccc(C(C)(C)C)cc2)[nH]1`: the IC50 on Prothrombin was active: 2.39 µM.
